The test system of this test is Non-modified BaF3 cells (WT). The test can be described thus: BaF3 cell assay, non-modified (WT) cells with IL3. Conditions: Mus musculus, BaF3, 48 h, read-out: BaF3 IC50, Non-modified BaF3 cells (WT) with IL3, 48 hours, CellTiter-Glo. On the technique in general: ATP-based viability assays read luminescence as a measure of living cells.

The IC50 is the midpoint of a concentration-inhibition curve. In the case of `CCn1nc(-c2[nH]c3ncccc3c2Cl)c2c(N)ncnc21` [Example 46, 3-(3-Chloro-1H-pyrrolo[2,3-b]pyridin-2-yl)-1-ethyl-pyrazolo[3,4-d]pyrimidin-4-amine], the IC50 is more than 10 µM.

With `CC(C)n1cc(-c2cc3ccccc3[nH]2)c2c(N)ncnc21` [Example 47, 5-(1H-Indol-2-yl)-7-isopropyl-pyrrolo[2,3-d]pyrimidin-4-amine], the 50% inhibitory concentration (IC50) came to 4.09 µM.

Take `CC(C)n1cc(-c2[nH]c3ccccc3c2Cl)c2c(N)ncnc21` [Example 48, 5-(3-Chloro-1H-indol-2-yl)-7-isopropyl-pyrrolo[2,3-d]pyrimidin-4-amine]: the IC50 was more than 10 µM.

For `CC(C)(C)n1nc(-c2[nH]c3ccccc3c2Br)c2c(N)ncnc21` [Example 49, 3-(3-Bromo-1H-indol-2-yl)-1-(tert-butyl)-1H-pyrazolo[3,4-d]pyrimidin-4-amine], the IC50 was 9.18 µM.

Regarding `CC(C)(C)n1nc(-c2cc3cc(Cl)cnc3[nH]2)c2c(N)ncnc21` [Example 50, 1-(tert-Butyl)-3-(5-chloro-1H-pyrrolo[2,3-b]pyridin-2-yl)-1H-pyrazolo[3,4-d]pyrimidin-4-amine], the IC50 is more than 10 µM.

Take `CC(C)(C)n1nc(-c2[nH]c3ncc(Cl)cc3c2Cl)c2c(N)ncnc21` [Example 51, 1-(tert-Butyl)-3-(3,5-dichloro-1H-pyrrolo[2,3-b]pyridin-2-yl)-1H-pyrazolo[3,4-d]pyrimidin-4-amine]: the half-inhibitory concentration (IC50) is 2.24 µM.

In the case of `CC(C)(O)c1ccc2c(Cl)c(-c3nn(C(C)(C)C)c4ncnc(N)c34)[nH]c2c1` [Example 52, 2-(2-(4-Amino-1-(tert-butyl)-1H-pyrazolo[3,4-d]pyrimidin-3-yl)-3-chloro-1H-indol-6-yl)propan-2-ol], the concentration for half-maximal inhibition (IC50) was more than 10 µM.

On to `CC(C)(C)n1nc(-c2[nH]c3cccc(Cl)c3c2Cl)c2c(N)ncnc21` [Example 53, 1-tert-Butyl-3-(3,4-dichloro-1H-indol-2-yl)pyrazolo[3,4-d]pyrimidin-4-amine], for which the IC50 is more than 10 µM.

Turning to `CC(C)(C)n1nc(-c2cc3cc(C#N)ccc3[nH]2)c2c(N)ncnc21` [Example 54, 2-(4-Amino-1-tert-butyl-pyrazolo[3,4-d]pyrimidin-3-yl)-1H-indole-5-carbonitrile], the IC50 is more than 10 µM.

Regarding `Nc1ncnc2c1c(-c1[nH]c3ncccc3c1Cl)nn2C1CCOCC1` [Example 56, 3-(3-Chloro-1H-pyrrolo[2,3-b]pyridin-2-yl)-1-(tetrahydro-2H-pyran-4-yl)-1H-pyrazolo[3,4-d]pyrimidin-4-amine], the IC50 is more than 10 µM.

`N#Cc1ccc(Cn2nc(-c3[nH]c4ncccc4c3Cl)c3c(N)ncnc32)cc1` [Example 57, 4-((4-Amino-3-(3-chloro-1H-pyrrolo[2,3-b]pyridin-2-yl)-1H-pyrazolo[3,4-d]pyrimidin-1-yl)methyl)benzonitrile]: the half-maximal inhibitory concentration (IC50) was more than 10 µM.

With `Nc1ncnc2c1c(-c1[nH]c3ncccc3c1Cl)nn2C1CNC1` [Example 58, 1-(Azetidin-3-yl)-3-(3-chloro-1H-pyrrolo[2,3-b]pyridin-2-yl)-1H-pyrazolo[3,4-d]pyrimidin-4-amine], the IC50 is more than 10 µM.

As for `Nc1ncnc2c1c(-c1[nH]c3ncccc3c1Cl)nn2CC1CCOCC1` [Example 59, 3-(3-Chloro-1H-pyrrolo[2,3-b]pyridin-2-yl)-1-((tetrahydro-2H-pyran-4-yl)methyl)-1H-pyrazolo[3,4-d]pyrimidin-4-amine], the IC50 was more than 10 µM.

With `Nc1ncnc2c1c(-c1[nH]c3ncccc3c1Cl)nn2CC1CCCCO1` (centres unmarked) [Example 60, 3-(3-Chloro-1H-pyrrolo[2,3-b]pyridin-2-yl)-1-((tetrahydro-2H-pyran-2-yl)methyl)-1H-pyrazolo[3,4-d]pyrimidin-4-amine], the 50% inhibitory concentration (IC50) was more than 10 µM.

On to `Nc1ncnc2c1c(-c1[nH]c3ncccc3c1Cl)nn2CC(F)(F)F` [Example 61, 3-(3-Chloro-1H-pyrrolo[2,3-b]pyridin-2-yl)-1-(2,2,2-trifluoroethyl)-1H-pyrazolo[3,4-d]pyrimidin-4-amine], for which the half-maximal inhibitory concentration (IC50) was more than 10 µM.

Consider `CCC(C)n1nc(-c2[nH]c3ncccc3c2Cl)c2c(N)ncnc21` (centres unmarked) [Example 62, 1-(sec-Butyl)-3-(3-chloro-1H-pyrrolo[2,3-b]pyridin-2-yl)-1H-pyrazolo[3,4-d]pyrimidin-4-amine], for which the half-maximal inhibitory concentration (IC50) was more than 10 µM.

As to `Nc1ncnc2c1c(-c1[nH]c3ccccc3c1Cl)nn2C1CCCCC1` [Example 63, 3-(3-Chloro-1H-indol-2-yl)-1-cyclohexyl-pyrazolo[3,4-d]pyrimidin-4-amine], the half-maximal inhibitory concentration (IC50) is more than 10 µM.

`CC(C)n1nc(-c2[nH]c3ccccc3c2Cl)c2c(N)ncnc21` [Example 64, 3-(3-Chloro-1H-indol-2-yl)-1-isopropyl-pyrazolo[3,4-d]pyrimidin-4-amine]: the half-maximal inhibitory concentration (IC50) was more than 10 µM.

Consider `Nc1ncnc2c1c(-c1[nH]c3ncccc3c1Cl)nn2C1CCC1` [Example 66, 3-(3-Chloro-1H-pyrrolo[2,3-b]pyridin-2-yl)-1-cyclobutyl-pyrazolo[3,4-d]pyrimidin-4-amine], for which the IC50 worked out at 2.15 µM.

As for `Nc1ncnc2c1c(-c1[nH]c3ncccc3c1Cl)nn2[C@H]1CC[C@H](NC(=O)C2CC2)CC1` [Example 68, N-[trans-4-[4-Amino-3-(3-chloro-1H-pyrrolo[2,3-b]pyridin-2-yl)pyrazolo[3,4-d]pyrimidin-1-yl]cyclohexyl]cyclopropanecarboxamide], the IC50 is more than 10 µM.

In the case of `Nc1ncnc2c1c(-c1[nH]c3ncccc3c1Cl)nn2C1CCC(O)C1` (centres unmarked) [Example 69, 3-[4-Amino-3-(3-chloro-1H-pyrrolo[2,3-b]pyridin-2-yl)pyrazolo[3,4-d]pyrimidin-1-yl]cyclopentanol], the IC50 amounted to 3.16 µM.

For `Cc1ccc2cc(-c3nn(C(C)(C)C)c4ncnc(N)c34)[nH]c2c1` [Example 70, 1-tert-Butyl-3-(6-methyl-1H-indol-2-yl)pyrazolo[3,4-d]pyrimidin-4-amine], the IC50 is more than 10 µM.

On to `Cc1ccc2c(Cl)c(-c3nn(C(C)(C)C)c4ncnc(N)c34)[nH]c2c1` [Example 71, 1-tert-Butyl-3-(3-chloro-6-methyl-1H-indol-2-yl)pyrazolo[3,4-d]pyrimidin-4-amine], for which the half-maximal inhibitory concentration (IC50) is more than 10 µM.

For the compound `CN(C)Cc1ccc2c(Cl)c(-c3nn(C(C)(C)C)c4ncnc(N)c34)[nH]c2c1` [Example 72, 1-(tert-Butyl)-3-(3-chloro-6-((dimethylamino)methyl)-1H-indol-2-yl)-1H-pyrazolo[3,4-d]pyrimidin-4-amine], the concentration for half-maximal inhibition (IC50) was 5.16 µM.

As to `CC(C)n1nc(-c2cc3cccnc3[nH]2)c2c(N)ncc(Cl)c21` [Example 73, 7-Chloro-1-isopropyl-3-(1H-pyrrolo[2,3-b]pyridin-2-yl)-1H-pyrazolo[4,3-c]pyridin-4-amine], the concentration for half-maximal inhibition (IC50) is more than 10 µM.

Take `CC(C)(C)n1nc(-c2cc3cc(F)ccc3[nH]2)c2c(N)ncnc21` [Example 74, 1-tert-Butyl-3-(5-fluoro-1H-indol-2-yl)pyrazolo[3,4-d]pyrimidin-4-amine]: the IC50 came out at 5 µM.

`CC(C)(C)n1nc(-c2cc3c(Cl)cccc3[nH]2)c2c(N)ncnc21` [Example 75, 1-tert-Butyl-3-(4-chloro-1H-indol-2-yl)pyrazolo[3,4-d]pyrimidin-4-amine]: the half-inhibitory concentration (IC50) was found to be 5.34 µM.

`CC(C)(C)n1nc(-c2[nH]c3ccccc3c2F)c2c(N)ncnc21` [Example 76, 1-(tert-Butyl)-3-(3-fluoro-1H-indol-2-yl)-1H-pyrazolo[3,4-d]pyrimidin-4-amine]: the IC50 was 5.48 µM.

Consider `Nc1ncnc2c1c(-c1[nH]c3ncccc3c1Cl)nn2C1CCOC1` (centres unmarked) [Example 78, 3-(3-Chloro-1H-pyrrolo[2,3-b]pyridin-2-yl)-1-(tetrahydrofuran-3-yl)-1H-pyrazolo[3,4-d]pyrimidin-4-amine], for which the IC50 was more than 10 µM.

Turning to `Nc1ncnc2c1c(-c1[nH]c3ncccc3c1Cl)nn2C1CCCC1` [Example 79, 3-(3-Chloro-1H-pyrrolo[2,3-b]pyridin-2-yl)-1-cyclopentyl-1H-pyrazolo[3,4-d]pyrimidin-4-amine], the IC50 is more than 10 µM.

Consider `CC(C)CCn1nc(-c2[nH]c3ncccc3c2Cl)c2c(N)ncnc21` [Example 80, 3-(3-Chloro-1H-pyrrolo[2,3-b]pyridin-2-yl)-1-isopentyl-1H-pyrazolo[3,4-d]pyrimidin-4-amine], for which the IC50 stood at 8.5 µM.

As for `CC(C)(C)Cn1nc(-c2[nH]c3ncccc3c2Cl)c2c(N)ncnc21` [Example 81, 3-(3-Chloro-1H-pyrrolo[2,3-b]pyridin-2-yl)-1-neopentyl-1H-pyrazolo[3,4-d]pyrimidin-4-amine], the IC50 was more than 10 µM.

For `CCCn1nc(-c2[nH]c3ncccc3c2Cl)c2c(N)ncnc21` [Example 82, 3-(3-Chloro-1H-pyrrolo[2,3-b]pyridin-2-yl)-1-propyl-1H-pyrazolo[3,4-d]pyrimidin-4-amine], the IC50 is more than 10 µM.

Regarding `CC(C)(C)n1nc(-c2[nH]c3ccc(F)cc3c2Cl)c2c(N)ncnc21` [Example 83, 1-tert-Butyl-3-(3-chloro-5-fluoro-1H-indol-2-yl)pyrazolo[3,4-d]pyrimidin-4-amine], the half-maximal inhibitory concentration (IC50) is more than 10 µM.

With `Cc1ccc2[nH]c(-c3nn(C(C)(C)C)c4ncnc(N)c34)cc2c1` [Example 84, 1-tert-Butyl-3-(5-methyl-1H-indol-2-yl)pyrazolo[3,4-d]pyrimidin-4-amine], the IC50 came to 6.13 µM.

On to `Nc1ncnc2c1c(-c1[nH]c3ccccc3c1Cl)nn2CC1CCOCC1` [Example 85, 3-(3-Chloro-1H-indol-2-yl)-1-((tetrahydro-2H-pyran-4-yl)methyl)-1H-pyrazolo[3,4-d]pyrimidin-4-amine], for which the IC50 is more than 10 µM.

As to `Nc1ncnc2c1c(-c1[nH]c3ccccc3c1Cl)nn2C1CCOC1` (centres unmarked) [Example 86, 3-(3-Chloro-1H-indol-2-yl)-1-(tetrahydrofuran-3-yl)-1H-pyrazolo[3,4-d]pyrimidin-4-amine], the IC50 was more than 10 µM.

For `Nc1ncnc2c1c(-c1[nH]c3ncccc3c1Cl)nn2CCN1CCCCC1` [Example 87, 3-(3-Chloro-1H-pyrrolo[2,3-b]pyridin-2-yl)-1-(2-(piperidin-1-yl)ethyl)-1H-pyrazolo[3,4-d]pyrimidin-4-amine], the half-inhibitory concentration (IC50) was more than 10 µM.

The values above are taken from US10844067B2, “Heterocyclic compounds as RET kinase inhibitors” (Cancer Research Technology Limited, priority 2016, dated 2020).
